Results taken from ChEMBL document CHEMBL3621116, “Benzimidazole Derivatives as Potent JAK1-Selective Inhibitors” (J Med Chem, 2015).

What was measured:
Homo sapiens [1] = species on record: Homo sapiens; test: Selectivity ratio of IC50 for JAK2 (unknown origin) using 35 uM of ATP and Tyr6 peptide to IC50 for JAK1 (unknown origin) using 87 uM of ATP and Tyr6 peptide
How it was run: (§1)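 JAK1 selectivity taken as IC50 against JAK2 or JAK3 divided by IC50 against JAK1. […] IC50s are means ± SD of three independent experiments.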

Homo sapiens [2] = species on record: Homo sapiens; test: Selectivity ratio of IC50 for JAK3 (unknown origin) using 16 uM of ATP and Tyr6 peptide to IC50 for JAK1 (unknown origin) using 87 uM of ATP and Tyr6 peptide; how it was run: as §1

Work on `NCCn1c(Cc2ccccc2)nc2cc(C(N)=O)ccc21` yielded a Ratio IC50 (Homo sapiens [1]) of 0.1 and a Ratio IC50 (Homo sapiens [2]) of 0.1.
